Results from patent US10039764B2, “Treatment and diagnosis of cancer and precancerous conditions using PDE10A inhibitors and methods to measure PDE10A expression” (University of South Alabama, priority 2013, dated 2018).

By UniProt entry, the sequences of proteins in these tests, tags left out. Residues count along the entry.
UniProt Q9Y233, 290-1055 limits assumed: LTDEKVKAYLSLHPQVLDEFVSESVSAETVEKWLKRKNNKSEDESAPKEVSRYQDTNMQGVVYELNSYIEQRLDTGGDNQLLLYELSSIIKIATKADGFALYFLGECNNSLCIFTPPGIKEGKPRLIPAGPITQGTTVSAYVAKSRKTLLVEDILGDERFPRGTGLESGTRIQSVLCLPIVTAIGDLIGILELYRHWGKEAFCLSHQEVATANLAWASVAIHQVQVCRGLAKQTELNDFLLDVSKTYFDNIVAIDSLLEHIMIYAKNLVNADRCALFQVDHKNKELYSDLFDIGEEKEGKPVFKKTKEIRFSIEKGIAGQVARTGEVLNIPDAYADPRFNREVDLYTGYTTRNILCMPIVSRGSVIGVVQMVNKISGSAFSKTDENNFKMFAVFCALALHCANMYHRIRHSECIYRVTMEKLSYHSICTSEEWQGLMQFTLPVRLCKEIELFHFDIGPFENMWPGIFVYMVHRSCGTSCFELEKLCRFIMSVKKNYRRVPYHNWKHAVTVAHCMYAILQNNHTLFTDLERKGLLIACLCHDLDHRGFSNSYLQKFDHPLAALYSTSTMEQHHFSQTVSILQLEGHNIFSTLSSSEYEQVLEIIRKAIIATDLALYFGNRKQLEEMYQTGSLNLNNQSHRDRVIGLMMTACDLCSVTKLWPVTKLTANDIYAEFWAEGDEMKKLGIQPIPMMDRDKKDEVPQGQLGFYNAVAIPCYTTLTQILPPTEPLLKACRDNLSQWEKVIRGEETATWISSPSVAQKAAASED

Biological target: T1, PDE10A (Homo sapiens, UniProt Q9Y233)
T1 construct: other: substrate cGMP; recombinant enzyme; other: substrate cAMP
Experiment: IMAP fluorescence polarization PDE assay, PDE10A
Format: biochemical
Experimental: MY5445 was purchased from EMD Millipore. […] Recombinant PDE enzymes were purchased from BPS Biosciences. DMSO was used as the vehicle for testing effects of all compounds.
PDE enzymatic activity was measured using IMAP fluorescence polarization assay (Molecular Devices. Inc.). […] For experiments involving cell extracts, 2×10^5 cells per well were plated on a six-well tissue culture plate 72 hours prior to cell lysis.
The effect of the inhibitors on the growth of human colon tumor and normal colonocytes was measured using the Cell Titer Glo Cell Viability Assay (Promega) as described above. The inhibitory potency toward purified recombinant phosphodiesterase enzymes was measured using the IMAP Phosphodiesterase Assay as described in the Materials and Methods section.

## COc1ccc(Cc2nccc3cc(OC)c(OC)cc23)cc1OC [Papaverine, papaverine]
  IC50: 22 nM
Substrate cAMP, recombinant enzyme, read-out: Phosphodiesterase Inhibition PDE10A cAMP IC50
  IC50: 101 nM

Where two headings read alike, the source gives them in different places.
